# Source: patent US20070004791A1, “3,6-disubstituted azabicyclo {3.1.0} hexane derivatives useful as muscarnic receptor antagonists” (priority 2002, published 2007)
# Sequences of proteins named here, by UniProt entry; tags and fusion partners are left off. A change or cut given only in a name is not applied to a line headed by its entry.
# UniProt P08483: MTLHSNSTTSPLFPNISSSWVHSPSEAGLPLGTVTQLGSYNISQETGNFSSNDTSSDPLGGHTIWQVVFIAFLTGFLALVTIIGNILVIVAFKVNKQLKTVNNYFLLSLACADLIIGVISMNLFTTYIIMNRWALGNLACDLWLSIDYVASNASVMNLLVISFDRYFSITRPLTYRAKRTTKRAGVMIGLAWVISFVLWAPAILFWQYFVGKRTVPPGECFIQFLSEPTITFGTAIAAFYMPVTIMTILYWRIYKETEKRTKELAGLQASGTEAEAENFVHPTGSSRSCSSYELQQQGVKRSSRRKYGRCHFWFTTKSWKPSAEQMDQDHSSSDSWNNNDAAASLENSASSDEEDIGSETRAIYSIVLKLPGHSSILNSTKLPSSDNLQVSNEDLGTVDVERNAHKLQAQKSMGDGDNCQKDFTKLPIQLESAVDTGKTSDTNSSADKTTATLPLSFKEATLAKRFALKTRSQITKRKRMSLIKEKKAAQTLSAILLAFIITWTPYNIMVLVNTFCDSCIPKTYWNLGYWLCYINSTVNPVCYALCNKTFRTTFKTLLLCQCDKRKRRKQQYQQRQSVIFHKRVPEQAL
# UniProt P10980: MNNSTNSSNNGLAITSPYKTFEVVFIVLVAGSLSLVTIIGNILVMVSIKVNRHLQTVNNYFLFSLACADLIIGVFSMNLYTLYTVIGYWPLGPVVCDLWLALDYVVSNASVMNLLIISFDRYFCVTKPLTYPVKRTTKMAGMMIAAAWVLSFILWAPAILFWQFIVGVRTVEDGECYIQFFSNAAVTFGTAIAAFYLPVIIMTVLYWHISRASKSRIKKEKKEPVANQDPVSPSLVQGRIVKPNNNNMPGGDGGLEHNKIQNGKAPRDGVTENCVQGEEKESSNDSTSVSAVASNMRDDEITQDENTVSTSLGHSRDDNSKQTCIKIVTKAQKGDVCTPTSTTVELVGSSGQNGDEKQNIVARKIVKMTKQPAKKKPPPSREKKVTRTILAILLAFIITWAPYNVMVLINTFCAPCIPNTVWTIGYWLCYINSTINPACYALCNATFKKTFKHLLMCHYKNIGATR
# What was measured:
# [1] = biological target: M3 muscarinic receptor (Rattus norvegicus, UniProt P08483); conditions: for Receptor Binding Assay M3 pKi: rat submandibular gland, [3H]NMS
# [2] = biological target: M2 muscarinic receptor (Rattus norvegicus, UniProt P10980); assay: Radioligand binding assay, [3H]-N-methylscopolamine, rat heart membranes; conditions: [3H]NMS
# [3] = system: isolated rat bladder
Compound,Receptor Binding Assay M3 pKi [1],Receptor Binding Assay M2 pKi [2],Kb [3],Receptor Binding Assay Selectivity M2/M3 ([1]; ratio M2/M3 from binding)
"(2S)-(−)-(1α,5α,6α)-N-[3-benzyl-3-azabicyclo[3.1.0]hexyl-6(aminomethyl)-yl]-2-hydroxy-2-cyclopentyl-2-phenylacetamide. L(+)-tartrate salt",7.65,6.21,–,–
O=C(OC[C@@H]1[C@H]2CN(Cc3ccccc3)C[C@@H]12)[C@](O)(c1ccccc1)C1CCCCC1,–,–,1.62 nM,–
"(2R)-(+)-(1α,5α,6α)-N-[3-benzyl-3-azabicyclo[3.1.0]hexyl-6-(aminomethyl)-yl]-2-hydroxy-2-cyclopentyl-2-phenylacetamide. L(+)-tartrate salt",8.46,7.35,–,13
